US9409857B2, “Agomelatine sulfuric acid complex, and preparation method and application thereof” (SHANGHAI RIGHTHAND PHARMTECH. CO., LTD., priority 2012, dated 2016)

Test: Determination of water solubility by external standard method
[1] = 0.1 mol/L hydrochloric acid aqueous solution

Row | Agomelatine content (solubility) (pH = 7.0 buffer solution) [mg/mL] | Agomelatine content (solubility) (pury water) [mg/mL] | Substance | Agomelatine content (solubility) [1] [mg/mL]
1 | 0.29 | 0.30 | Agomelatine benzenesulfonic acid complex | 0.38
2 | – | – | Agomelatine sulfuric acid complex | 0.40
